Results published in ChEMBL document CHEMBL1148291, “Prediction of human volume of distribution values for neutral and basic drugs. 2. Extended data set and leave-class-out statistics” (J Med Chem, 2004).
Only a part of the results on these compounds is given; other tests are left out.

Experiment: Ionization constant (pKa)
Assay type: physicochemical

With `CCC(=O)N(c1ccccc1)C1(COC)CCN(CCn2nnn(CC)c2=O)CC1` the pKa was 6.5.
